Results from ChEMBL document CHEMBL4028908, “The Discovery of 3-((4-Chloro-3-methoxyphenyl)amino)-1-((3R,4S)-4-cyanotetrahydro-2H-pyran-3-yl)-1H-pyrazole-4-carboxamide, a Highly Ligand Efficient and Efficacious Janus Kinase 1 Selective Inhibitor with Favorable Pharmacokinetic Properties” (J Med Chem, 2017).

By UniProt entry, the sequences of proteins in these tests, tags left out. Where a name states a change or a piece, a line headed by the entry shows the natural chain unless it says otherwise.
UniProt P23458: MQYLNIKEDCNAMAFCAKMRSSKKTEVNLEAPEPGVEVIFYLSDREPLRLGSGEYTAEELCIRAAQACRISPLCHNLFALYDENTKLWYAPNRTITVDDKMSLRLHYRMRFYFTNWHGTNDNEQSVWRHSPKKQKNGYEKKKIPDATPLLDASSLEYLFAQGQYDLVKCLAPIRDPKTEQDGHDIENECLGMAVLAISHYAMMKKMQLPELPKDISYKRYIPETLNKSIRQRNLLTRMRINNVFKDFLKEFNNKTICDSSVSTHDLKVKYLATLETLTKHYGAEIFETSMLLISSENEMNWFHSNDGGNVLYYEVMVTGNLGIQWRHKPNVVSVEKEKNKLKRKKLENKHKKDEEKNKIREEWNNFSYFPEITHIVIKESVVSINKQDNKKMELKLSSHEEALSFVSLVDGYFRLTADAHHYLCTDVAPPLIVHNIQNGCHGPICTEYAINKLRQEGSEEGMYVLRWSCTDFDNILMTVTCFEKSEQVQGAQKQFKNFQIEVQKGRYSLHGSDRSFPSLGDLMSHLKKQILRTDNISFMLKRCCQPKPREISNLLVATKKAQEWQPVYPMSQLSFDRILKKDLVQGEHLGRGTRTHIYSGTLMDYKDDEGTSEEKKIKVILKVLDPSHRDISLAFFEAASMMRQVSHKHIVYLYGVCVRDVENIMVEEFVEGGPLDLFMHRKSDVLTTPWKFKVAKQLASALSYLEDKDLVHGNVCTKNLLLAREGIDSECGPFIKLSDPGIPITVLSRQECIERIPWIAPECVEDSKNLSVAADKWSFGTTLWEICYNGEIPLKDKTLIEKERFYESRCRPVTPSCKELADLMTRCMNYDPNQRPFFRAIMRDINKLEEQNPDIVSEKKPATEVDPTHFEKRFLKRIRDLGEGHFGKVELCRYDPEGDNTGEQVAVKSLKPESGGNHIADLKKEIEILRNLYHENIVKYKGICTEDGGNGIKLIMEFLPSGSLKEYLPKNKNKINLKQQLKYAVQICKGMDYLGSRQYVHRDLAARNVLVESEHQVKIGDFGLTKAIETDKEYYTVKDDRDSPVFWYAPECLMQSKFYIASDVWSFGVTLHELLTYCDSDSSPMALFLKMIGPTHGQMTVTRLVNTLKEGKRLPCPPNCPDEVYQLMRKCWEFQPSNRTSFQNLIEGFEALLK
UniProt O60674: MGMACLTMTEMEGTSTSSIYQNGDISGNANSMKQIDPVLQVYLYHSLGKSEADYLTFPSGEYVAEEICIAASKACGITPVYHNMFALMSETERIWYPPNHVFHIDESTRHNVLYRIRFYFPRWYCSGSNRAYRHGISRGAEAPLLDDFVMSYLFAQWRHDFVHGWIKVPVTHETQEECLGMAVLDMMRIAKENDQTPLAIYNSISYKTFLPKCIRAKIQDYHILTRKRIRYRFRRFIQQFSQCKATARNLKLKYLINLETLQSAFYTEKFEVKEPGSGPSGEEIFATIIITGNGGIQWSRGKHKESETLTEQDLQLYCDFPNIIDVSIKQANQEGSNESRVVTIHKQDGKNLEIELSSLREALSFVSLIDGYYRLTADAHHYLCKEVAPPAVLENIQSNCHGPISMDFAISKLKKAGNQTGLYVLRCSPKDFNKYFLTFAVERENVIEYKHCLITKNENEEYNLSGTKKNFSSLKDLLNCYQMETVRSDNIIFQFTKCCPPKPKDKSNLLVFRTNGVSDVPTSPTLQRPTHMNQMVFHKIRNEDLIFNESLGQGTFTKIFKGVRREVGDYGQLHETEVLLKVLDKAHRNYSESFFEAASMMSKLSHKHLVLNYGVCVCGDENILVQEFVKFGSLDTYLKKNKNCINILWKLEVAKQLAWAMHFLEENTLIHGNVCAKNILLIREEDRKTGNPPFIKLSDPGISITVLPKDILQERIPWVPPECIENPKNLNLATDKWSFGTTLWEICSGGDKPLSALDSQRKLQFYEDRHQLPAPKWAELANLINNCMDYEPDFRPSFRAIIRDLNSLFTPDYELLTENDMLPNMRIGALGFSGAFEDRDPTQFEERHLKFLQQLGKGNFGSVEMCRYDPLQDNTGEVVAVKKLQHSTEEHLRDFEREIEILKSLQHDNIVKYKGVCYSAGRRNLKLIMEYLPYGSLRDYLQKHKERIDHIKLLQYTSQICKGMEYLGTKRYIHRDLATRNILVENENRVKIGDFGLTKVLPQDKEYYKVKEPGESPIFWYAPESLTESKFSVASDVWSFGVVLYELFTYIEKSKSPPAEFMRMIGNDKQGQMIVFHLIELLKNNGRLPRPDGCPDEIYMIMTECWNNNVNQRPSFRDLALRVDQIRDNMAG

Tests used:
[1] = target: T1, Tyrosine-protein kinase JAK1 (Homo sapiens, UniProt P23458)
[2] = target: T1, Tyrosine-protein kinase JAK1; remark: listed apart in the source
[3] = target: T2, Tyrosine-protein kinase JAK2 (Homo sapiens, UniProt O60674)
[4] = target: T2, Tyrosine-protein kinase JAK2; remark: listed apart in the source

SMILES | IC50 [1] | IC50 [2] | IC50 [3] | IC50 [4]
N#C[C@H]1C[C@@H](N2CCC2)CC[C@@H]1n1cc(C(N)=O)c(Nc2ccc([C@H](O)C(F)(F)F)cc2)n1 | 0.3 nM |  |  | 
N#C[C@H]1CCOC[C@@H]1n1cc(C(N)=O)c(Nc2ccnc(F)c2)n1 | 0.24 nM | 42 nM |  | 
N#C[C@H]1CCCC[C@@H]1n1cc(C(N)=O)c(Nc2ccccc2)n1 | 3 nM |  |  | 
N#C[C@H]1CCOC[C@@H]1n1cc(C(N)=O)c(Nc2ccc([C@H](O)C(F)(F)F)cc2)n1 | 0.05 nM | 14 nM | 0.47 nM | 48 nM
N#C[C@H]1CCOC[C@@H]1n1cc(C(N)=O)c(Nc2ccccc2)n1 |  |  | 3 nM | 209 nM

Further lines, results first:

IC50 [1] | IC50 [2] | IC50 [3] | IC50 [4] | SMILES
1.2 nM |  |  |  | N#C[C@H]1C[C@@H](O)CC[C@@H]1n1cc(C(N)=O)c(Nc2ccc(Cl)cc2)n1
 |  | 1.5 nM | 140 nM | N#C[C@H]1CCOC[C@@H]1n1cc(C(N)=O)c(Nc2ccc(Cl)cc2)n1
0.6 nM |  |  |  | CN([C@H]1CC[C@H](n2cc(C(N)=O)c(Nc3ccc(Cl)cc3)n2)[C@@H](C#N)C1)C1(C)COC1
